Target: T1, LFO1 (Chlamydomonas reinhardtii, UniProt A8I5W8)
T1 construct: gene CHLRE_07g312300v5
Test: absorbance titration, […] nm difference
Assay type: binding

Chains of the proteins cited; added tags and fusions are not shown. Residues count along the entry.
UniProt A8I5W8, 1-171: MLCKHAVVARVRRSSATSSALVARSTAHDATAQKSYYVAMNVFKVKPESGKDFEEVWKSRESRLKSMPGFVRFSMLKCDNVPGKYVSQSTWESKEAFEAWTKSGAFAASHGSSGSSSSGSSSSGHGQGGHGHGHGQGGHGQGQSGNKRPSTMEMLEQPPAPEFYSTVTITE

Kd: 2400 ± 300 nM
SMILES: C=CC1=C(C)C2=Cc3c(C=C)c(C)c4[n]3[Fe]([Cl])[n]3c(c(C)c(CCC(=O)O)c3=CC3=NC(=C4)C(C)=C3CCC(=O)O)=CC1=N2 [heme]
